Results taken from US20050085463A1 (priority 2003, published 2005).

Chains of the proteins cited; added tags and fusions are not shown.
UniProt P08913, whole entry: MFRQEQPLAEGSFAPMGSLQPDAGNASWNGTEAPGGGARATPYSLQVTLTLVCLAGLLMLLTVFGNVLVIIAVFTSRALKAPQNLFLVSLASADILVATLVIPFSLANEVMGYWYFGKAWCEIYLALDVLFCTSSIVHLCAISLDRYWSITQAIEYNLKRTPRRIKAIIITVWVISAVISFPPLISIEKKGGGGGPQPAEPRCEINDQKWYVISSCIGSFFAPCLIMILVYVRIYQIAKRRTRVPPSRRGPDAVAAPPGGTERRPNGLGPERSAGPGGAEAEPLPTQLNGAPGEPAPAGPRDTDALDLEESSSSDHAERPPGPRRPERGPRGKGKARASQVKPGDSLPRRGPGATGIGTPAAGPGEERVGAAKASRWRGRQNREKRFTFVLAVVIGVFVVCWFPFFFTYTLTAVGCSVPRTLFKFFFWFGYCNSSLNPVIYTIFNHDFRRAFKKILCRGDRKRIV

Biological target: α2A (Alpha 2A) adrenergic receptor (Homo sapiens, UniProt P08913)
Experiment: R-SAT competitive antagonist assay
Conditions: nr = no significant antagonist or inverse agonist activity up to 1 μM, nr* = nr but significant agonist activity

O=C1Cc2cc(CCN3CCN(c4nsc5ccccc45)CC3)c(Cl)cc2N1 [Ziprasidone, reference compound]
pKi α2A, competitive antagonist: nr
